This is one part of the list.
Test system: A. baumannii ATCC 17978
Experiment: relative growth (fraction of control); higher = less inhibition
Details: 50 µM

Row | SMILES | relative growth
1 | O=C(C[C@@H]1CC[C@H]2[C@@H](COC[C@@H](O)CN2C(=O)Nc2ccc3c(c2)OCO3)O1)N1CCN(c2ccccc2)CC1 | 1.01
2 | OC(Cn1cncn1)(Cn1cncn1)c1ccc(F)cc1F | 1.18
3 | CC1(C)C(=O)C=C[C@@]2(C)C1C=C[C@]1(C)C2CC[C@@]2(C)[C@H](c3ccoc3)OC(=O)[C@H]3O[C@]321 (stereo not given in full) | 1.28
4 | C[C@@H]1CN([C@@H](C)CO)S(=O)(=O)c2ccc(-c3cncnc3)cc2O[C@H]1CN(C)C(=O)c1cccc(F)c1 | 1
5 | CCCCCCCCCCCCCCCC[N+](C)(C)Cc1ccccc1.[Cl-] | 0.311
6 | CN(C)S(=O)(=O)Nc1ccc(C(=O)O)cc1 | 1.08
7 | CO[C@H]1O[C@H](CO)[C@@H](OC(=O)c2ccc(Br)cc2)[C@@H]2OC(=O)[C@H](Cc3ccccc3)C/C=C/C[C@@H](Cc3ccccc3)C(=O)O[C@@H]12 | 1.17
8 | C[C@H]1CN([C@@H](C)CO)S(=O)(=O)c2ccc(C#CC(C)(C)O)cc2O[C@H]1CN(C)Cc1ccccc1 | 0.754
9 | O/N=C/c1ccc2ccccc2c1 | 0.812
10 | COc1cccc(S(=O)(=O)N(C)C[C@@H]2Oc3cc(C#CCC(C)C)ccc3S(=O)(=O)N([C@H](C)CO)C[C@H]2C)c1 | 1.19
11 | NCc1ccccc1CC(=O)NC1C(=O)N2C(C(=O)O)=C(CSc3nnnn3CC(=O)O)CSC12 (stereo not given) | 1.24
12 | CC(=O)[C@@]1(O)CC[C@H]2[C@@H]3C=C(Cl)C4=CC(=O)[C@@H]5C[C@@H]5[C@]4(C)[C@H]3CC[C@@]21C | 1.05
13 | C[C@H](O)C#Cc1ccc2c(c1)O[C@@H](CN(C)C)[C@@H](C)CN([C@H](C)CO)S2(=O)=O | 1.05
14 | N[C@H]1CCc2nc3ccccc3c(=O)n2[C@@H]1c1ccsc1 | 1.07
15 | O=C(NCCO)c1cc2ccccc2c(=O)s1 | 0.862
16 | CC(C)(C)OC(=O)Cn1ccc(=O)[nH]c1=O | 1.05
17 | CO[C@H]1CN(C)C(=O)c2cc(NS(=O)(=O)c3cn(C)cn3)ccc2OC[C@@H](C)N(Cc2cccc(F)c2)C[C@@H]1C | 0.831
18 | COc1c(-c2coc3cc4c(cc3c2=O)CC(O)C(C)(C)O4)ccc2c1C=CC(C)(C)O2 (stereo not given) | 0.946
19 | CS(=O)(=O)NCc1nnnn1-c1ccc(F)c(F)c1 | 1.02
20 | COC[C@@H](C)NC(=O)C(=O)NC1CC1 | 1.02
21 | CC1C(=O)O[C@H]2C1CCC1(C)CCC(=O)[C@@H](C)[C@H]21 (stereo not given in full) | 0.946
22 | Cl.c1ccc2c(CC3=NCCN3)cccc2c1 | 0.941
23 | Clc1cccc(Cl)c1CSc1cccs1 | 1.06
24 | O=S1(=O)N[C@H](c2ccccc2)CO1 | 1.04
25 | CNC(=O)Cn1c(=O)c2c(N3CCN(C(=O)C4CC4)CC3)ccnc2n(C)c1=O | 1.12

Source: published antibiotic growth screens (doi:10.1038/s41589-023-01349-8)
